# Rows were chosen to be rich in hits. Some 1.8% of all compounds tested hit in one or more screens of this group.
# Yeast UUG start – modulators of yeast start codon fidelity, primary screen, whole organism, S. cerevisiae, single point, plate reader; S. cerevisiae UUG-firefly luciferase reporter, luminescence/redox ratio; activity score, % at 18.7 µM; actives 0.13% (n = 350,000);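 active means replicate mean at a twofold rise or more, about +100% in these data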;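 further: firefly luciferase made from a UUG start codon reports start codon fidelity; reporter light over untreated wells divided by growth signal over untreated wells; some hits fall short of that in this replicate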
# Cneo AK release – Cryptococcus neoformans lysis via adenylate kinase release. C. neoformans lysis, adenylate kinase release luminescence, 4 h; normalised: neutral wells 0, clomiphene wells 100. hit rate 0.2% among 360,000. lysis activity, % at 15 µM. AID 651654;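 active = mean lysis activity across replicates of at least 80%, whatever share of replicates individually reach that level; inactive = mean lysis activity below 80%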
#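 Material: C. neoformans cells; Schedule: 4 h static compound exposure, 37 °C, read 1 h post-reagent; Measured by: adenylate kinase release luminescence; Read-out: signal increase indicating cell lysis; Controls: Clomiphene as positive lysis control.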
# E-sel inducer – E-selectin induction on HUVECs; P16581; HUVEC E-selectin immunofluorescence imaging; normalized: neutral wells 0, TNF-alpha wells 100; activation, % at 7.58 µM; hit rate 0.37% among 260,000; AID 686992;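 active = mean E-selectin-positive cell signal at least 10% of the positive control, reached in at least 60% of replicates, without over 20% cell loss; inconclusive = no rule given, readout overlaps actives, possibly toxicity-flagged; inactive = the rest, including those meeting only one limit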
#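 Assay system: HUVEC, human umbilical vein endothelial cells / Amount: 3,000 HUVEC/well / Controls: TNF-alpha positive control, DMSO neutral control / Compound dosing: single concentration / Medium: EGM-2 over gelatin coat / Evaluation: percent E-selectin-positive cells / Signal: immunofluorescence imaging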
# DENV2 CPE rescue – protects cells from dengue virus 2 cytopathic effect | DENV2-infected cells, cytopathic effect rescue, plate reader | CPE inhibition, % at 9.99 µM | hit rate 1.7% among 350,000; in the data active = CPE inhibition above about 20%, passing the limit was not always enough; inconclusive = no clear call, values can overlap the other calls; tested in BHK-21 cells
# Numbers stand for hits; 0 = inactive; ? = inconclusive; - = no result given.
SMILES,Yeast UUG start,Cneo AK release,E-sel inducer,DENV2 CPE rescue
COc1cccc(S(=O)(=O)Nc2ccc3c(c2)[C@H]2C[C@@H](CC(=O)N[C@@H](C)c4ccccc4)O[C@H](CO)[C@H]2O3)c1,0,0,0,?
O=C(C[C@@H]1C=C[C@@H](NC(=O)c2ccccn2)[C@H](CO)O1)NCc1cccc(F)c1,0,0,0,35.9
O=C(C[C@H]1CC[C@@H](NC(=O)Nc2ccccc2F)[C@@H](CO)O1)NCc1ccc(-c2ccccc2)cc1,-,-,0,30.2
O=C(C[C@H]1CC[C@H](NC(=O)Nc2ccc3c(c2)OCO3)[C@@H](CO)O1)NCc1ccc2c(c1)OCO2,0,0,0,0
O=C(C[C@@H]1C=C[C@@H](NC(=O)c2ccccn2)[C@@H](CO)O1)NCc1cccc(F)c1,0,0,0,0
O=C(C[C@@H]1CC[C@H](NC(=O)Nc2ccc3c(c2)OCO3)[C@@H](CO)O1)NCc1ccc2c(c1)OCO2,0,0,0,24.3
O=C(C[C@H]1CC[C@@H](NC(=O)c2ccc3c(c2)OCO3)[C@@H](CO)O1)NCc1ccc(F)cc1,0,93.7,0,0
O=C(C[C@@H]1CC[C@H](NC(=O)c2ccc3c(c2)OCO3)[C@H](CO)O1)NCc1ccc(F)cc1,0,0,0,0
C[C@H](CO)N1C[C@H](C)[C@H](CN(C)Cc2ccccn2)Oc2ncc(C#C[C@@H](C)O)cc2C1=O,0,0,0,0
COc1ccc2c3c(n(C)c2c1)[C@H](CO)N(C(=O)C1CC1)CC31CCN(C(=O)CN(C)C)CC1,-,-,0,0
COc1ccc2c3c(n(C)c2c1)[C@@H](CO)N(C(=O)C1CC1)CC31CCN(C(=O)CN(C)C)CC1,-,-,0,22.8
COc1ccc2c3c(n(C)c2c1)[C@H](CO)N(S(C)(=O)=O)CC31CCN(C(=O)C2CC2)CC1,-,-,0,30.8
COc1ccc2c3c(n(C)c2c1)[C@@H](CO)N(S(C)(=O)=O)CC31CCN(C(=O)C2CC2)CC1,-,-,0,0
O=C(Cc1ccccn1)NCC[C@H]1CC[C@@H](NS(=O)(=O)c2ccc(F)cc2)[C@@H](CO)O1,0,0,0,0
O=C(CCCNC(=O)c1ccc(Cl)cc1)Nc1ncccc1O,0,0,0,0
O=C(CCCNC(=O)c1ccc(Cl)cc1)Nc1nccs1,0,86.9,0,0
CC(C)OC1=CC(=O)OC(c2cccc(Cl)c2)C1 (centres undefined),-,-,0,30.9
CCC(=O)N1CC2(C1)[C@@H](c1ccc(-c3ccccc3OC)cc1)[C@@H](CO)N2C(C)=O,-,-,0,0
CCC(=O)N1[C@H](CO)[C@H](c2ccc(C3=CCCC3)cc2)C12CN(C(=O)COC)C2,-,-,0,0
COc1ccccc1-c1ccc([C@@H]2[C@H](CO)N(C(C)=O)C23CN(C(C)=O)C3)cc1,-,-,0,28.1
COc1ccccc1-c1ccc([C@@H]2[C@@H](CO)N(C(=O)C3CC3)C23CN(C(C)=O)C3)cc1,-,-,0,79.0
CC(=O)N1[C@@H](CO)[C@@H](c2ccc(C3=CCCC3)cc2)C12CN(C(=O)NC(C)C)C2,-,-,0,40.6
O=C(C1CCCC1)N1CC(=O)N2[C@H](CO)[C@H](c3ccc(C#CC4CCCC4)cc3)[C@H]2C1,-,-,0,0
CC(C)c1ccccc1OCCCCN1CCCCC1,0,0,-,29.9
CC(C)c1ccccc1OCCCN1CCCC1,0,0,-,0
SMILES,Yeast UUG start,Cneo AK release,E-sel inducer,DENV2 CPE rescue
C[C@H]1CN([C@@H](C)CO)C(=O)c2cc(NC(=O)C3CC3)ccc2O[C@@H]1CN(C)Cc1ccc2c(c1)OCO2,0,0,0,0
C[C@H](CO)N1C[C@H](C)[C@H](CN(C)Cc2cccnc2)Oc2ncc(C#CC3(O)CCCC3)cc2C1=O,0,97.9,0,0
C[C@H]1CN([C@@H](C)CO)C(=O)c2cc(C#CC3(O)CCCC3)cnc2O[C@H]1CN(C)Cc1cccnc1,0,-,0,0
C[C@@H]1CN([C@H](C)CO)C(=O)c2cc(C#CC3(O)CCCC3)cnc2O[C@@H]1CN(C)Cc1cccnc1,-,-,0,25.5
O=C(NC(=S)Nc1ccc(Br)cc1)C1CCCCC1,0,0,0,0
O=C(NC(=S)Nc1ccc(Br)cc1)C1CCC1,0,146.3,0,0
Cc1ccccc1NC(=O)c1c(C)nc(SCC(=O)OCc2ccccc2)c(C#N)c1-c1ccc(F)cc1,-,-,-,20.0
COc1ccc(NC(=O)/C=C/c2cccc(C(F)(F)F)c2)cn1,0,0,-,23.4
COc1ccc(NC(=O)/C=C/c2cccc(Br)c2)cn1,0,0,-,0
CCCNC(=O)C(Cc1ccc(I)cc1)NC(=O)c1ccc(C#N)cc1 (centres undefined),0,0,0,32.8
CCC(=O)N1C[C@H](O)COC[C@H]2O[C@@H](CC(=O)NCC3CCCCC3)CC[C@@H]21,0,0,0,0
COc1ccc2c(c1OC)C(=O)OC2Nc1ccccn1 (centres undefined),0,0,-,-
COc1ccc2c(c1OC)C(=O)OC2Nc1ccccc1S(=O)(=O)C(F)F (centres undefined),0,93.8,-,-
CC(C)(OC(=O)c1ccc(C#N)cc1)c1cc2ccccc2c(=O)o1,0,0,0,36.7
Cc1ccccc1OCC(O)Cn1c(Br)nc2c1c(=O)[nH]c(=O)n2C (centres undefined),-,-,0,0
Cc1ccccc1OCC(O)Cn1c(Br)nc2c1c(=O)n(C)c(=O)n2C (centres undefined),0,0,51.0,0
COc1ccc(NC(=O)Nc2ccc3c(c2)C(=O)N([C@@H](C)CO)C[C@@H](C)[C@@H](CN(C)Cc2ccc(Cl)c(Cl)c2)OCCCC[C@@H](C)O3)cc1,0,0,0,0
COc1cccc(-c2cnc3c(NC(C)=O)cc(-c4ccncc4)cn23)c1,0,0,0,0
Cn1cc(-c2cnc3c(NC=O)cc(-c4cccc(C(F)(F)F)c4)cn23)cn1,0,0,0,27.0
COc1cccc(-c2cnc3c(NC=O)cc(-c4ccncc4)cn23)c1,0,0,0,65.2
O=C(NCC[C@@H]1CC[C@@H](NS(=O)(=O)c2cccc(F)c2)[C@@H](CO)O1)C1CCC1,0,0,0,0
CO[C@H]1CN(C)C(=O)c2cc(NC(=O)Nc3cc(F)ccc3F)ccc2OC[C@@H](C)N(C(=O)c2cnccn2)C[C@H]1C,0,0,0,0
CO[C@@H]1CN(C)C(=O)c2ccc(NS(=O)(=O)c3cn(C)cn3)cc2OC[C@H](C)N(Cc2cccc(F)c2)C[C@@H]1C,0,0,0,0
COCC(=O)N(C)C[C@H]1Oc2ncc(C#Cc3cccnc3)cc2C(=O)N([C@H](C)CO)C[C@H]1C,0,0,0,24.3
COCC(=O)N(C)C[C@@H]1Oc2ncc(C#CCC3CCCC3)cc2C(=O)N([C@@H](C)CO)C[C@H]1C,0,103.2,0,0
COCC(=O)N(C)C[C@H]1Oc2ncc(C#Cc3cccnc3)cc2C(=O)N([C@@H](C)CO)C[C@@H]1C,0,0,0,0
COCC(=O)N(C)C[C@H]1Oc2ncc(C#CCC3CCCC3)cc2C(=O)N([C@H](C)CO)C[C@H]1C,0,0,0,0
O=C(C[C@@H]1C[C@H]2c3cc(NC(=O)C4CCOCC4)ccc3O[C@H]2[C@H](CO)O1)NCc1ccccc1F,0,0,0,0

# Bioassay records (PubChem BioAssay)
